What was measured:
NCI-H322M = conditions: 5, 10, 15, 20, 25 AM, proliferation measured 72 hours later, normalized to tomatidine
Source text: (§1) Results from DTP analysis of the NCI-60 screen were independently validated with each cell line to determine which NSCLC cell lines required Hedgehog activity to proliferate.

HOP62 = conditions: 5, 10, 15, 20, 25 AM, proliferation measured 72 hours later, normalized to tomatidine
Source text: as §1

A549 = tested on: A549
Source text: as §1

Q: `CC1=C2C[C@H]3[C@@H](CC=C4C[C@@H](O)CC[C@@]43C)[C@@H]2CC[C@]12O[C@@H]1C[C@H](C)CN[C@H]1[C@H]2C` [Cyclopamine, cyclopamine] was tested. Which “Sensitivity of cell proliferation to cyclopamine” value (NCI-H322M) did it give?
A: sensitive

Q: And the “Sensitivity of cell proliferation to cyclopamine” value (HOP62)?
A: sensitive

Q: What about the “Sensitivity of cell proliferation to cyclopamine” value (A549; A549 cells (High-Gli)) of the same compound?
A: relatively insensitive

Q: And the “Sensitivity of cell proliferation to cyclopamine after Gli1 siRNA” value (A549; A549 transfected with Gli1 siRNA (SEQ ID NO:9) for 30 hours, then cyclopamine, proliferation measured 48 hours later)?
A: cyclopamine sensitivity

Q: What about the “Sensitivity of cell proliferation to cyclopamine after random siRNA” value (A549; A549 treated with a random siRNA (control), followed by cyclopamine) of the same compound?
A: relatively cyclopamine-insensitive

Source: patent publication US8273701B2, “Method for diagnosing non-small cell lung carcinoma” (Trustees of Dartmouth College, priority 2005, dated 2012)
